# CycPeptMPDB entries from one study

PAMPA measures passive passage through an artificial lipid membrane. Permeability is in 10^-6 cm/s, converted from the database's log10 values; higher is more permeable.

CC(C)C[C@@H]1NC(=O)[C@H](C)NC(=O)[C@H](Cc2ccccc2)NC(=O)[C@H](CC(C)C)N(C)C(=O)[C@@H]2CCCN2C(=O)CN(Cc2ccccc2)C1=O is reported with PAMPA 1.3 × 10^-6 cm/s. CCCN1CC(=O)N(C)[C@@H](CC(C)C)C(=O)N[C@H](CC(C)C)C(=O)N2CCC[C@@H]2C(=O)N[C@@H](CC(C)C)C(=O)N[C@@H](Cc2ccccc2)C1=O has PAMPA 6 × 10^-6 cm/s. CCCN1CC(=O)N[C@H](CC(C)C)C(=O)N[C@@H](CC(C)C)C(=O)N2CCC[C@H]2C(=O)N(C)[C@H](CC(C)C)C(=O)N[C@@H](Cc2ccccc2)C(=O)N2CCC[C@@H]2C1=O is reported with PAMPA 2.3 × 10^-6 cm/s. For CC(C)C[C@@H]1NC(=O)[C@H]2CCCN2C(=O)[C@H](CC(C)C)N(C)C(=O)[C@H](CC(C)C)NC(=O)[C@H](C)N(C)C(=O)[C@H]2CCCN2C(=O)[C@H](Cc2ccccc2)NC1=O the data give PAMPA 1.9 × 10^-6 cm/s. CC(C)C[C@@H]1NC(=O)[C@@H]2CCCN2C(=O)C[C@H](Cc2ccccc2)NC(=O)[C@@H](CC(C)C)N(C)C(=O)C[C@H](Cc2ccccc2)NC(=O)[C@H]2CCCN2C(=O)[C@H](Cc2ccccc2)NC1=O has PAMPA 1.1 × 10^-6 cm/s. CC(C)C[C@@H]1NC(=O)[C@@H]2CCCN2C(=O)CN(Cc2ccccc2)C(=O)[C@@H](CC(C)C)NC(=O)[C@H](C)NC(=O)[C@H]2CCCN2C(=O)[C@H](Cc2ccccc2)NC1=O has PAMPA 0.32 × 10^-6 cm/s. Listed for CC(C)C[C@@H]1NC(=O)C[C@H](Cc2ccccc2)NC(=O)[C@H]2CCCN2C(=O)[C@H](Cc2ccccc2)NC(=O)CN(Cc2ccccc2)C(=O)[C@@H]2CCCN2C(=O)[C@@H](CC(C)C)NC1=O: PAMPA 1.4 × 10^-6 cm/s.

CCCN1CC(=O)N[C@@H](CC(C)C)C(=O)N[C@@H](CC(C)C)C(=O)N2CCC[C@@H]2C(=O)N(C)[C@H](CC(C)C)C(=O)N[C@@H](Cc2ccccc2)C1=O has PAMPA 7.1 × 10^-6 cm/s. CC(C)C[C@@H]1NC(=O)[C@@H](C)NC(=O)[C@H]2CCCN2C(=O)[C@H](Cc2ccccc2)NC(=O)[C@@H](CC(C)C)NC(=O)[C@H]2CCCN2C(=O)[C@@H](CC(C)C)NC1=O has PAMPA 0.98 × 10^-6 cm/s. CC(C)C[C@@H]1NC(=O)[C@H](C)N(C)C(=O)[C@H]2CCCN2C(=O)[C@H](Cc2ccccc2)NC(=O)[C@H](CC(C)C)N(C)C(=O)[C@@H]2CCCN2C(=O)C[C@H](Cc2ccccc2)NC1=O is reported with PAMPA 5.4 × 10^-6 cm/s. Listed for CC(C)C[C@@H]1C(=O)N[C@@H](Cc2ccccc2)CC(=O)N2CCC[C@@H]2C(=O)N[C@H](CC(C)C)C(=O)N[C@@H](Cc2ccccc2)C(=O)N2CCC[C@@H]2C(=O)N[C@H](C)C(=O)N1C: PAMPA 0.85 × 10^-6 cm/s. The entry for CC(C)C[C@H]1NC(=O)[C@H]2CCCN2C(=O)[C@H](CC(C)C)N(C)C(=O)[C@H](CC(C)C)N(C)C(=O)[C@H](C)N(C)C(=O)[C@@H]2CCCN2C(=O)[C@H](Cc2ccccc2)NC1=O lists PAMPA 2.1 × 10^-6 cm/s. Listed for CC(C)C[C@@H]1NC(=O)[C@@H]2CCCN2C(=O)[C@H](CC(C)C)NC(=O)CN(Cc2ccccc2)C(=O)[C@@H](C)NC(=O)[C@H](Cc2ccccc2)NC1=O: PAMPA 0.83 × 10^-6 cm/s. CC(C)C[C@@H]1C(=O)N[C@@H](Cc2ccccc2)C(=O)N[C@@H](Cc2ccccc2)CC(=O)N[C@H](CC(C)C)C(=O)N[C@H](CC(C)C)C(=O)N2CCC[C@H]2C(=O)N1C has PAMPA 4.4 × 10^-6 cm/s.

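Lipid, pH, incubation time, direction and concentration are not recorded in the data file. The list need not hold all peptides of the study. Peptides that the database sets to -10, its floor, are left out.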

Collected by the curators of CycPeptMPDB (Li et al. 2023) from Townsend et al. 2020, doi:10.26434/chemrxiv.13335941.v1.